In patent publication US12409179B2, “Pharmaceutical combination of pimozide and methotrexate and use thereof” (GENEROS BIOPHARMA LTD., priority 2019, dated 2025):

Test system: adjuvant-induced arthritis in rats
Assay: Embodiment 3: oral Nib1 and methotrexate in adjuvant-induced arthritis in rats (joint score, paw volume, AUC)
Format: in vivo, Lewis rat
Conditions: day 22, Tofacitinib 5 mpk, MTX 0.05 mpk, Nib1 1 mpk, Nib1 1 mpk + MTX 0.05 mpk

CN(Cc1cnc2nc(N)nc(N)c2n1)c1ccc(C(=O)N[C@@H](CCC(=O)O)C(=O)O)cc1 [MTX, Methotrexate]
volume of the right hind foot, Average value: 3.43 mL
